This is a selection; strong and weak results do not stand in their true shares. Results filed as inconclusive are left out. Active and inactive are the calls of the source. The call rests on the fitted dose curve; in most records, active means well fitted inhibition curve with a large enough effect; inconclusive means small, poorly fitted or top-dose-only effect; inactive means flat fitted curve, though single readings scatter.

The chains behind the UniProt entries cited, without tags or fusion partners.
UniProt P08659, whole entry: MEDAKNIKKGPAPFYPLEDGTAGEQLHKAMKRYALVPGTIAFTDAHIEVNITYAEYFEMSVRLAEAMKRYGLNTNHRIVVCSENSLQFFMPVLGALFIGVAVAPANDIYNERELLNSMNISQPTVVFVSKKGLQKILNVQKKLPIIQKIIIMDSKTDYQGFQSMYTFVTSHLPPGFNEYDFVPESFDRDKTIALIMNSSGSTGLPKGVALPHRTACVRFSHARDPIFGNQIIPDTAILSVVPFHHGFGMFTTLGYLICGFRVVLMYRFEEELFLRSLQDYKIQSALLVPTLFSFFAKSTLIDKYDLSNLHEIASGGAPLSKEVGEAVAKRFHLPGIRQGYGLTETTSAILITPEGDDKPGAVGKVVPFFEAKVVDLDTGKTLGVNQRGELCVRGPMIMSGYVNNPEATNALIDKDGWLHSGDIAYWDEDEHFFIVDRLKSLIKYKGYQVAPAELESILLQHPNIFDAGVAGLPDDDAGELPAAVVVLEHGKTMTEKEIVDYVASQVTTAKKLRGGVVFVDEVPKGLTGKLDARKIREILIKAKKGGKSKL

The assay concerns the target Luciferin 4-monooxygenase (Photinus pyralis) (UniProt P08659). In words: qHTS profiling assay for firefly luciferase inhibitor/activator using purifed enzyme and Km concentrations of substrates (counterscreen for miR-21 project).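 Further: plate controls were vehicle for no effect and reference inhibitor for full effect; nearly all actives have a fitted effect of over 55% in size.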 The note with it: purified FLuc, luminescence inhibition; at 57.5 µM (top of the series). On the technique in general: qHTS replaces the single test concentration by a dilution series.
Consider `COc1ccc(OP(C)(=O)Nc2cccc(Br)c2)cc1` (stereo unspecified), for which the activity change, negative = inhibition is inactive: -0.689%.

As to `CN(C)CCOC(=O)C(O)(c1ccccc1)C1CCCCC1` (stereo unspecified), the activity change, negative = inhibition is inactive: -2.12%.

Regarding `COc1ccc(NP(C)(=O)Oc2ccccc2OC)cc1` (stereo unspecified), the activity change, negative = inhibition was inactive: 1.45%.

On to `O=[N+]([O-])c1ccc(OP2(=O)COCCO2)cc1` (stereo unspecified), for which the activity change, negative = inhibition was inactive: -1.4%.

As to `Cc1cc(-c2cccc3ccccc23)c(C)cn1.O=[N+]([O-])c1cc([N+](=O)[O-])c(O)c([N+](=O)[O-])c1`, the activity change, negative = inhibition was inactive: -12.2%.

As to `CP(=O)(Nc1ccc(SC(F)(F)F)cc1)Oc1ccc(F)cc1` (stereo unspecified), the activity change, negative = inhibition was inactive: 0.165%.

For the compound `CCOP(C)(=S)SCC(=O)NC(C)(CC)C(=O)O` (stereo unspecified), the activity change, negative = inhibition is inactive: 0.539%.

On to `CP(=O)(Nc1ccc2c(c1)OCCO2)Oc1ccccc1` (stereo unspecified), for which the activity change, negative = inhibition is inactive: 0.147%.

Take `Cc1ccccc1NP(C)(=O)Nc1ccccc1C`: the activity change, negative = inhibition is inactive: 5.56%.

Regarding `CP(=O)(Nc1ccccc1F)Oc1ccccc1` (stereo unspecified), the activity change, negative = inhibition is inactive: -1.15%.

In the case of `CC(C)c1ccc(OP(C)(=O)Nc2ccc(SC(F)(F)F)cc2)cc1` (stereo unspecified), the activity change, negative = inhibition is inactive: 3.88%.

Turning to `O=C(OCCN1CCN(CCOCc2ccccc2)CC1)C(O)(c1ccccc1)c1ccccc1`, the activity change, negative = inhibition is inactive: 4.63%.

Consider `CCOC(=O)c1ccc(NP(C)(=O)Oc2ccc(F)cc2)cc1` (stereo unspecified), for which the activity change, negative = inhibition was inactive: 0.592%.

Consider `COc1ccc(OP(C)(=O)Nc2ccc(SC(F)(F)F)cc2)cc1` (stereo unspecified), for which the activity change, negative = inhibition is inactive: -2.13%.

`CCN(CC)CCCOC(=O)C(O)(c1ccccc1)C1CCCCC1` (stereo unspecified): the activity change, negative = inhibition is inactive: 5.72%.

For the compound `CP(=O)(Nc1ccccc1)Oc1ccc(F)cc1` (stereo unspecified), the activity change, negative = inhibition was inactive: 5.14%.

Turning to `CCCCCOc1ccc(NP(C)(=O)Oc2ccc(Cl)cc2Cl)cc1` (stereo unspecified), the activity change, negative = inhibition is inactive: -2.18%.

Consider `Cc1cc(C)cc(OP(C)(=O)Nc2cccc(C(F)(F)F)c2)c1` (stereo unspecified), for which the activity change, negative = inhibition is inactive: 6.34%.

On to `COc1ccccc1OP(C)(=O)Nc1ccc(C)c(C)c1` (stereo unspecified), for which the activity change, negative = inhibition was inactive: -3.46%.

Turning to `COc1ccc(OP(C)(=O)Nc2ccccc2Br)cc1` (stereo unspecified), the activity change, negative = inhibition is inactive: 0.499%.

Take `CP(=O)(OCCOc1ccccc1)OCCOc1ccccc1`: the activity change, negative = inhibition is inactive: -0.665%.

As for `CP(=O)(Nc1ccc(Cl)cc1Cl)Oc1ccccc1` (stereo unspecified), the activity change, negative = inhibition is inactive: 1.7%.

Consider `COc1ccccc1OP(C)(=O)Nc1ccc(Br)cc1` (stereo unspecified), for which the activity change, negative = inhibition was inactive: 0.099%.

Consider `COc1ccc(OP(C)(=O)Nc2ccccn2)cc1` (stereo unspecified), for which the activity change, negative = inhibition was inactive: -0.696%.

`CN(C)CCOC(=O)C(O)(c1ccccc1)C1CCCC1` (stereo unspecified): the activity change, negative = inhibition was inactive: -0.148%.

For `O=[N+]([O-])c1cc([N+](=O)[O-])c(Nc2ccccn2)c([N+](=O)[O-])c1`, the activity change, negative = inhibition is inactive: -2.61%.

Turning to `Cc1c(NP(C)(=O)Oc2ccc(C(C)C)cc2)c(=O)n(-c2ccccc2)n1C` (stereo unspecified), the activity change, negative = inhibition is inactive: -6.01%.

Turning to `CP(=O)(Nc1ccccn1)Oc1ccccc1` (stereo unspecified), the activity change, negative = inhibition was inactive: -0.0114%.

In the case of `COc1ccccc1OP(C)(=O)Nc1ccc(C)cc1C` (stereo unspecified), the activity change, negative = inhibition was inactive: 4.59%.

For the compound `CCc1ccc(OP(C)(=O)O)cc1`, the activity change, negative = inhibition is inactive: -4.38%.

Regarding `CCN(CC)CC(O)COC(=O)C(O)(c1ccccc1)C1CCCCC1` (stereo unspecified), the activity change, negative = inhibition is inactive: 5.25%.

Take `COc1ccc(OP(C)(=O)Nc2ccc(Br)cc2)cc1` (stereo unspecified): the activity change, negative = inhibition was inactive: -2.51%.

`COc1ccccc1OP(C)(=O)Nc1c(C)n(C)n(-c2ccccc2)c1=O` (stereo unspecified): the activity change, negative = inhibition was inactive: 0.574%.

Take `O=C(OCCCN1CCCC1)C(O)(c1ccccc1)C1CCCCC1` (stereo unspecified): the activity change, negative = inhibition was inactive: 1.48%.

For the compound `CP(=O)(Oc1ccccc1)N1CCOC1=O` (stereo unspecified), the activity change, negative = inhibition was inactive: 1.64%.

For the compound `CCc1ccc(OP(C)(=O)Nc2cccnc2)cc1` (stereo unspecified), the activity change, negative = inhibition is inactive: -0.759%.

`CC(C)(C)c1ccc(OP(C)(=O)O)cc1`: the activity change, negative = inhibition is inactive: -3.71%.

In the case of `COc1ccccc1OP(C)(=O)Nc1ccccc1Br` (stereo unspecified), the activity change, negative = inhibition is inactive: 2.8%.

Take `CP(=O)(Nc1ccc(Cl)cc1)Oc1ccc(F)cc1` (stereo unspecified): the activity change, negative = inhibition is inactive: -0.0393%.

For the compound `CN(C)C(=O)c1c([N+](=O)[O-])cc([N+](=O)[O-])cc1[N+](=O)[O-]`, the activity change, negative = inhibition is inactive: -4.52%.

As to `CCOC(=O)c1ccc(NP(C)(=O)Oc2ccc(Cl)cc2)cc1` (stereo unspecified), the activity change, negative = inhibition was inactive: 1.74%.

For `CP(=O)(OC12CC3CC(CC(C3)C1)C2)OC12CC3CC(CC(C3)C1)C2`, the activity change, negative = inhibition is inactive: -0.23%.

In the case of `CP(=S)(Nn1cnnc1)Oc1ccccc1` (stereo unspecified), the activity change, negative = inhibition was inactive: -0.812%.

Regarding `CP(=O)(Nc1ccccc1Br)Oc1ccccc1` (stereo unspecified), the activity change, negative = inhibition is inactive: 0.386%.

As for `COc1ccccc1OP(C)(=O)Nc1ccccc1` (stereo unspecified), the activity change, negative = inhibition was inactive: 2.64%.

Consider `CP(=O)(Nc1ccc(SC(F)(F)F)cc1)Oc1ccc(Cl)cc1` (stereo unspecified), for which the activity change, negative = inhibition is inactive: -0.691%.

In the case of `Cc1cccc(C)c1OP(C)(=O)Nc1ccc(SC(F)(F)F)cc1` (stereo unspecified), the activity change, negative = inhibition was inactive: -1.01%.

For the compound `CP(=O)(Oc1ccccc1)OC(c1ccccc1)C(F)(F)F` (stereo unspecified), the activity change, negative = inhibition was inactive: 0.246%.

As to `CCc1ccc(OP(C)(=O)N2CCN(c3ccc([N+](=O)[O-])cc3)CC2)cc1` (stereo unspecified), the activity change, negative = inhibition was inactive: -2.73%.

On to `CP(=O)(NC(=O)Nc1ccccc1)Oc1ccccc1` (stereo unspecified), for which the activity change, negative = inhibition was inactive: -0.697%.

Regarding `Cc1cc(C)cc(OP(C)(=O)Nc2ccc(SC(F)(F)F)cc2)c1` (stereo unspecified), the activity change, negative = inhibition is inactive: 1.37%.

In the case of `CCOC(=O)c1ccc(NP(C)(=O)Oc2ccc(OC)cc2)cc1` (stereo unspecified), the activity change, negative = inhibition was inactive: 4.26%.

Consider `CCOP(C)(=S)SCC(=O)NC(C)C(=O)O` (stereo unspecified), for which the activity change, negative = inhibition is inactive: -1.45%.

Take `CP(=O)(Nc1ccccn1)Oc1ccc(Cl)cc1` (stereo unspecified): the activity change, negative = inhibition is inactive: 4.74%.

In the case of `CCN(CC)CCCOC(=O)C(O)(c1ccccc1)c1ccccc1`, the activity change, negative = inhibition is inactive: 1.62%.

On to `O=[N+]([O-])c1cc([N+](=O)[O-])c(Nc2cccnc2)c([N+](=O)[O-])c1`, for which the activity change, negative = inhibition was inactive: -9.36%.

In the case of `O=[N+]([O-])c1ccc2c(c1)C=Nc1ccccc1O2`, the activity change, negative = inhibition was inactive: -9.31%.

`CC(C)(C)c1ccc(OP(C)(=O)Nc2ccc(SC(F)(F)F)cc2)cc1` (stereo unspecified): the activity change, negative = inhibition is inactive: 0.457%.

Take `Cc1cccc(C)c1OP(C)(N)=O` (stereo unspecified): the activity change, negative = inhibition was inactive: -1.51%.

As for `COc1ccccc1OP(C)(=O)Nc1ccc(C)cc1` (stereo unspecified), the activity change, negative = inhibition is inactive: -1.97%.

Turning to `Cc1ccc(NP(C)(=O)Oc2ccccc2)c(C)c1` (stereo unspecified), the activity change, negative = inhibition is inactive: -2.07%.

Take `CCOC(=O)c1ccc(NP(C)(=O)Oc2ccccc2)cc1` (stereo unspecified): the activity change, negative = inhibition was inactive: -0.164%.

Consider `Cc1cc(C)cc(OP(C)(N)=O)c1` (stereo unspecified), for which the activity change, negative = inhibition is inactive: -1.75%.

As for `COc1ccccc1OP(C)(=O)Nc1cc(Cl)ccc1C` (stereo unspecified), the activity change, negative = inhibition was inactive: -1.96%.

As for `COc1ccc(OP(C)(=O)Nc2cccc(F)c2)cc1` (stereo unspecified), the activity change, negative = inhibition was inactive: -1.48%.

For the compound `CC1=NCCc2c1[nH]c1ccccc21.O=[N+]([O-])c1cc([N+](=O)[O-])c(O)c([N+](=O)[O-])c1`, the activity change, negative = inhibition is inactive: 2.82%.

Take `COc1ccccc1OP(C)(=O)Nc1cccc(Br)c1` (stereo unspecified): the activity change, negative = inhibition is inactive: -1.01%.

On to `CCOC(=O)c1ccc(NP(C)(=O)Oc2cc(C)cc(C)c2)cc1` (stereo unspecified), for which the activity change, negative = inhibition is inactive: 1.67%.

With `Cc1cc(C)cc(OP(C)(=O)Nc2ccc(C)cc2C)c1` (stereo unspecified), the activity change, negative = inhibition was inactive: 6.25%.

Regarding `Cc1ccc(C)c(NP(C)(=O)Oc2ccccc2)c1` (stereo unspecified), the activity change, negative = inhibition was inactive: 1.57%.

Consider `CP(=O)(Nc1cccc(Br)c1)Oc1ccccc1` (stereo unspecified), for which the activity change, negative = inhibition is inactive: -5.59%.

Regarding `Cc1cc(C)cc(OP(C)(=O)Nc2ccccn2)c1` (stereo unspecified), the activity change, negative = inhibition was inactive: 0.977%.

As for `CN1CCCCC1COC(=O)C1(O)c2ccccc2CCc2ccccc21` (stereo unspecified), the activity change, negative = inhibition is inactive: 0.358%.

With `COc1ccccc1OP(C)(=O)Nc1c(C)cccc1C` (stereo unspecified), the activity change, negative = inhibition was inactive: 0.307%.

Consider `CP(=O)(Nc1ccc(SC(F)(F)F)cc1)Oc1ccccc1` (stereo unspecified), for which the activity change, negative = inhibition was inactive: -1.08%.

Turning to `CCCOc1ccc(NP(C)(=O)Oc2ccc(Cl)cc2)cc1` (stereo unspecified), the activity change, negative = inhibition is inactive: -2.46%.

The values above are taken from PubChem BioAssay AID588342 (National Center for Advancing Translational Sciences (NCATS), 2011).
